Test results taken from US20250368666A1, “INDAZOLE COMPOUNDS” (TYRA BIOSCIENCES, INC., priority 2022, published 2025).
Where two headings read alike, the source gives them in different places.

Sequences of proteins named here, by UniProt entry; tags and fusion partners are left off. A change or cut given only in a name is not applied to a line headed by its entry. Residues count along the entry.
UniProt P22607, 23-806 limits assumed: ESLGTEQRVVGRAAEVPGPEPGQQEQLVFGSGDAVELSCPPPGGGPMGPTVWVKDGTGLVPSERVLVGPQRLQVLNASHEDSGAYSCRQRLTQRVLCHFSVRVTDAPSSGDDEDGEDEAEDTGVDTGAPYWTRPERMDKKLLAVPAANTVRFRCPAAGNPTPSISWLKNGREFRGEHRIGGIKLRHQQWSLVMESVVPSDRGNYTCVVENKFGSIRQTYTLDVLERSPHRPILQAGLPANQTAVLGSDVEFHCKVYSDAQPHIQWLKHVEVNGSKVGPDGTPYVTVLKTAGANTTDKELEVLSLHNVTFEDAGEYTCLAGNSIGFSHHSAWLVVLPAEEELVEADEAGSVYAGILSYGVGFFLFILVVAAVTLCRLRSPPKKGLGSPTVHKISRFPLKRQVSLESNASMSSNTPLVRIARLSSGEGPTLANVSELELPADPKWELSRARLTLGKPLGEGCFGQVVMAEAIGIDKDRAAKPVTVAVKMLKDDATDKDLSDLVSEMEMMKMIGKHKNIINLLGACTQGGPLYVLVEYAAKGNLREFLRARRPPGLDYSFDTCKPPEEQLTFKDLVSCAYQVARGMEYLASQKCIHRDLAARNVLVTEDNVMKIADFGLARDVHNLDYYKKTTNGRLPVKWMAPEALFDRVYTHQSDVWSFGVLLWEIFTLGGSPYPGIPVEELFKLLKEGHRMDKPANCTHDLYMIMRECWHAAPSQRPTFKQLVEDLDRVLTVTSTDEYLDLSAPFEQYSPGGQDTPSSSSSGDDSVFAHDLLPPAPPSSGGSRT
UniProt P22607, 23-806 V555M limits assumed: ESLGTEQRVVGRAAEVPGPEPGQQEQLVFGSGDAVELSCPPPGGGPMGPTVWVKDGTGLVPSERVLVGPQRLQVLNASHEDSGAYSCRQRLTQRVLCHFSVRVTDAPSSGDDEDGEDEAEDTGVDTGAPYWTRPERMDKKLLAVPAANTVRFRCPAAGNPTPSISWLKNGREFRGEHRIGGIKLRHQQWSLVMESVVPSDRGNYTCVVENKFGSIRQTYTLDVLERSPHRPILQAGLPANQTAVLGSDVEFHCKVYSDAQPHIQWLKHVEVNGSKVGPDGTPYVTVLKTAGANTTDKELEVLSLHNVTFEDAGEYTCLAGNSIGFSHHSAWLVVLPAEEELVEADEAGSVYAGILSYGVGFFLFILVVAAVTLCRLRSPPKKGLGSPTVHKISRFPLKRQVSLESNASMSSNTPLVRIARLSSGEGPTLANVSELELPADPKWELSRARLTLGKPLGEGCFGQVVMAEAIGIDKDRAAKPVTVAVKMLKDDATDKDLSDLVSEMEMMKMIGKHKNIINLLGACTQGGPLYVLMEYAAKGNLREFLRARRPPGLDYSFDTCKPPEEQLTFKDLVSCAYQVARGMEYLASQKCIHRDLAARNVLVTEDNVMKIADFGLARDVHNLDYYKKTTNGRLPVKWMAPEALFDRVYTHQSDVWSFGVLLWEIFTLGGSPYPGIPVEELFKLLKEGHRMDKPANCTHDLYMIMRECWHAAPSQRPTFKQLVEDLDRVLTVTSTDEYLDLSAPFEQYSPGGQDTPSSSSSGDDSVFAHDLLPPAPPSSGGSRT
UniProt P11362, 22-822 limits assumed: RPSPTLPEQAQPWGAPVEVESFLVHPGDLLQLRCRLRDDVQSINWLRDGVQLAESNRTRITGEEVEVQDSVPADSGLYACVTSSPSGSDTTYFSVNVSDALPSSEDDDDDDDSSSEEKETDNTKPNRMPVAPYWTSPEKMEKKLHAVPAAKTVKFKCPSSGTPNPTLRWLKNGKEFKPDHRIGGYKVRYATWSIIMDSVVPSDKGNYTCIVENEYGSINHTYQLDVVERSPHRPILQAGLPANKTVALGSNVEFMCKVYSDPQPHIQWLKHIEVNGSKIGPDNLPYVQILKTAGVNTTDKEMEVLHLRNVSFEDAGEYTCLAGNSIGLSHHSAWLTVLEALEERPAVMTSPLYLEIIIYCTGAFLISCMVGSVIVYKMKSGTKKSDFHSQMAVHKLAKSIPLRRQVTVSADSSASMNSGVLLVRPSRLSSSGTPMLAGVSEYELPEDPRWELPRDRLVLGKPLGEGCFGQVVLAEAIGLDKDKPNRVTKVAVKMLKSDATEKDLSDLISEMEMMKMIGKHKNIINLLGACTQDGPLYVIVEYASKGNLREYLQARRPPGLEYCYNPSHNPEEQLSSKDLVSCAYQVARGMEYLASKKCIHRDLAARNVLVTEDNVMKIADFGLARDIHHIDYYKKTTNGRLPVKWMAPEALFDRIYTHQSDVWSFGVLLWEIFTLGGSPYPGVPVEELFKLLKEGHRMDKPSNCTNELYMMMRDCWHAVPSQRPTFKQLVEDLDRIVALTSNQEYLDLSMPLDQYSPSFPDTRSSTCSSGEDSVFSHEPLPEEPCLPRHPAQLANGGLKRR
UniProt P22455, 22-802 limits assumed: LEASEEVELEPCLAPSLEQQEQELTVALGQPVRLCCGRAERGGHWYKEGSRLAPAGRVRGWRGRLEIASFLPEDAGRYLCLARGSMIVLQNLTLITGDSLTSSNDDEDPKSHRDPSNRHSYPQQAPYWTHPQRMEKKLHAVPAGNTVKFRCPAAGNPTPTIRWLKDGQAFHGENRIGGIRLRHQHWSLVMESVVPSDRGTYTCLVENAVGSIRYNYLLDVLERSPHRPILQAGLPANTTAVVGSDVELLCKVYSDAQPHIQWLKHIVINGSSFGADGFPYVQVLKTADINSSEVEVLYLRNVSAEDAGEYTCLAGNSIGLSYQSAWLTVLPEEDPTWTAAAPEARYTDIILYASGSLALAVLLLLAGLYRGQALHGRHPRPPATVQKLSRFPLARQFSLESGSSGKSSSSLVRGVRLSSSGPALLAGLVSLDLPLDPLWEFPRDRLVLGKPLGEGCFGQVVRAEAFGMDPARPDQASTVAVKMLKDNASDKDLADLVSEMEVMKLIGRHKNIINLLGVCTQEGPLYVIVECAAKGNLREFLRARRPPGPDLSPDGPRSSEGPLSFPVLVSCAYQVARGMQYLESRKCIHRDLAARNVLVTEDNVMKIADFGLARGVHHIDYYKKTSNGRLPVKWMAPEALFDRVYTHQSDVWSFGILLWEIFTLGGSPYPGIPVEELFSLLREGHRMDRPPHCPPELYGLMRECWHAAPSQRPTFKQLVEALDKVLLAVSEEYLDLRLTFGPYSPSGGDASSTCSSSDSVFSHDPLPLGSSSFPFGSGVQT
UniProt P21802, 22-821 limits assumed: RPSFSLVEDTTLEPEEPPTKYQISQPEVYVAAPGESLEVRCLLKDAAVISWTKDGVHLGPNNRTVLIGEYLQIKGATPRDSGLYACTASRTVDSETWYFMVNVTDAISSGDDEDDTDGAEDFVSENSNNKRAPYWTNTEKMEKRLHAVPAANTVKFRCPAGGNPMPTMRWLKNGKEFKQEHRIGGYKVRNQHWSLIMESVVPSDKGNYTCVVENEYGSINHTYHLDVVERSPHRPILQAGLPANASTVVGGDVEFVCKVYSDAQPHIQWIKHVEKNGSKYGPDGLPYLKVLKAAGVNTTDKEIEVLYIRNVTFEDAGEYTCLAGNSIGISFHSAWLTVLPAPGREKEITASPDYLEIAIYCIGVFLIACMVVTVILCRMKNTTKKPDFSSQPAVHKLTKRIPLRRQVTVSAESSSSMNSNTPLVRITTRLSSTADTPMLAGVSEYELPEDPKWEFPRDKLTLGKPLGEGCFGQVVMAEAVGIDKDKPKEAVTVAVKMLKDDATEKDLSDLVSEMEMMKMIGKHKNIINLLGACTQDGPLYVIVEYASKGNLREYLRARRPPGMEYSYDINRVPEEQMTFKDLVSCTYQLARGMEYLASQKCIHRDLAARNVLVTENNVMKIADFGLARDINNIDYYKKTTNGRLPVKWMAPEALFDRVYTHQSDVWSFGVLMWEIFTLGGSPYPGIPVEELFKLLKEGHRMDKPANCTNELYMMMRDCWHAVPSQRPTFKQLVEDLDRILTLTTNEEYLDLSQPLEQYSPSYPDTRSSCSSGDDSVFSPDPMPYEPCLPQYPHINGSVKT

Key:
[1] = target: FGFR3 (Homo sapiens, UniProt P22607); assay: Kinase binding assay (kinase-tagged T7 phage, affinity beads, qPCR), Kd; conditions: read-out: FGFR3 (Kd nM)
[2] = target: FGFR1 (Homo sapiens, UniProt P11362); assay: as above; conditions: read-out: FGFR1 (Kd nM)
Protocol: (§1) Kinase-tagged T7 phage strains were prepared in an E. coli host derived from the BL21 strain. E. coli were grown to log-phase and infected with T7 phage and incubated with shaking at 32° C. until lysis. The lysates were centrifuged and filtered to remove cell debris. Streptavidin-coated magnetic beads were treated with biotinylated small molecule ligands for 30 minutes at room temperature to generate affinity resins for kinase assays. The liganded beads were blocked with excess biotin and washed with blocking buffer SeaBlock (Pierce), 1% BSA, 0.05% Tween 20, 1 mM DTT to remove unbound ligand and to reduce non-specific binding. Binding reactions were assembled by combining kinases, liganded affinity beads, and test compounds in 1× binding buffer (20% SeaBlock, 0.17×PBS, 0.05% Tween 20, 6 mM DTT).
(§2) Test compounds were prepared as 111× stocks in 100% DMSO. Kds were determined using an 11-point 3-fold compound dilution series with three DMSO control points. All compounds for Kd measurements are distributed by acoustic transfer (non-contact dispensing) in 100% DMSO. The compounds were then diluted directly into the assays such that the final concentration of DMSO was 0.9%. All reactions performed in polypropylene 384-well plate. Each was a final volume of 0.02 ml. The assay plates were incubated at room temperature with shaking for 1 hour and the affinity beads were washed with wash buffer (lx PBS, 0.05% Tween 20). The beads were then re-suspended in elution buffer (lx PBS, 0.05% Tween 20, 0.5 M non-biotinylated affinity ligand) and incubated at room temperature with shaking for 30 minutes. The kinase concentration in the eluates was measured by qPCR.
(§3) Binding constants were calculated with a standard dose-response curve using the Hill equation: […]
(§4) The Hill Slope was set to −1. Curves were fitted using a non-linear least square fit with the Levenberg-Marquardt algorithm.

[3] = system: MDA-MB-453 cell line (FGFR4-Y367C); assay: Cancer cell line cell viability assay (Cell Titer-Glo), 120 hr; conditions: read-out: MDA-MB-453
Text: (§5) Experimental Purpose: To detect the change of intracellular ATP by Cell Titer-Glo® and to evaluate the inhibitory effect of the compounds on cancer cell lines by determining the in vitro IC50 value of the compounds.
Cell Titer-Glo® 2.0 Luminescent cell viability assay reagent was purchased from Promega (Madison, WI). KG-1, KATO-III, and MDA-MB-453 cell lines were purchased from American Type Culture Collection (Manassas, VA). RT112/84 cell line was purchased from Millipore-Sigma (St. Louis, MO). HuH7 cells were purchased from Seikisui Xenotech (Kansas City, KS). RT112/84 and MDA-MB-453 cells were cultured in RPMI1640 media supplemented with 10% fetal bovine serum. KG-1 and KATO-III cell lines were cultured in IMDM media supplemented with 20% FBS. HuH7 cells were cultured in IMDM media supplemented with 10% FBS. […]
Cell Viability Assay Procedure: Cells were plated in 96-well clear bottom/white plates (Corning #3903) at a range of densities depending on the optimal assay window (5,000-20,000 cells/well in […] of media), incubated overnight. […] Luminescence was recorded by a Clariostar Plus Microplate Reader (BMG Labtech, Cary, NC). Cells were assessed as a percentage of DMSO only treated control cells. Curves were plotted and IC50 values were calculated using the GraphPad Prism 9 program based on a sigmoidal dose-response equation (log (inhibitor) vs. response—Variable slope, 4-parameter).

[4] = system: KATO-III cell line (FGFR2 amplification); assay: Cancer cell line cell viability assay (Cell Titer-Glo), 72 hr; conditions: read-out: Kato III IC50 nM
Text: as §5
(§6) Cell Titer-Glo® 2.0 Luminescent cell viability assay reagent was purchased from Promega (Madison, WI). KG-1, KATO-III, and MDA-MB-453 cell lines were purchased from American Type Culture Collection (Manassas, VA). RT112/84 cell line was purchased from Millipore-Sigma (St. Louis, MO). HuH7 cells were purchased from Seikisui Xenotech (Kansas City, KS). RT112/84 and MDA-MB-453 cells were cultured in RPMI1640 media supplemented with 10% fetal bovine serum. KG-1 and KATO-III cell lines were cultured in IMDM media supplemented with 20% FBS. HuH7 cells were cultured in IMDM media supplemented with 10% FBS. Cultures were maintained at 37° C. in a humidified atmosphere of 5% CO2 and 95% air.
(§7) Cell Viability Assay Procedure: Cells were plated in 96-well clear bottom/white plates (Corning #3903) at a range of densities depending on the optimal assay window (5,000-20,000 cells/well in […] of media), incubated overnight. The next day, test compound DMSO stock solutions were made at 10 mM and […] final concentration. Compounds were then added to cells in a 9-dose, 4-fold dilution series starting at 3 μM with an HP 300e Digital Dispenser (each dose was applied in triplicate). DMSO was backfilled to each well up to 301 nL total volume of test compound+DMSO, and a total of 301 nL DMSO was added to a control/no test compound well in triplicate. The cells in cell culture plates were incubated with the compounds at 37° C. and 5% CO2 for 72 hours-120 hours depending on the cell line. […] Luminescence was recorded by a Clariostar Plus Microplate Reader (BMG Labtech, Cary, NC). Cells were assessed as a percentage of DMSO only treated control cells. Curves were plotted and IC50 values were calculated using the GraphPad Prism 9 program based on a sigmoidal dose-response equation (log (inhibitor) vs. response—Variable slope, 4-parameter).

[5] = system: KG-1 cell line (FGFR 1-fusion); assay: as above; conditions: read-out: KG-1 IC50 nM, KG-1 cell line (FGFR1-fusion)
Text: as §5, §6, §7

[6] = system: RT112/84 cell line (FGFR3-fusion); assay: as above; conditions: read-out: RT112/84 IC50 nM
Text: as §5, §6, §7

[7] = target: FGFR3 (V555M) (Homo sapiens, UniProt P22607, V555M); assay: Kinase binding assay (kinase-tagged T7 phage, affinity beads, qPCR), Kd; conditions: read-out: FGFR3 (V555M) (Kd nM); V555M mutant
[8] = target: FGFR4 (Homo sapiens, UniProt P22455); assay: as above; conditions: read-out: FGFR4 (Kd nM)
Protocol: as §1, §2, §3, §4

[9] = target: FGFR2 (Homo sapiens, UniProt P21802); assay: as above; conditions: read-out: FGFR2 (Kd nM)
Protocol: as §1, §2, §3, §4

[10] = kinase binding assay, 11-point 3-fold dilution series

C[C@@H](Oc1ccc2[nH]nc(-c3ccc(N4CC(N)(Cc5ccn(C)n5)C4)nc3)c2c1)c1c(Cl)cncc1Cl
Kd [1]: 1 to 50 nM | Kd [2]: 1 to 50 nM

C[C@@H](Oc1ccc2[nH]nc(-c3cnc(N4CC[C@@](N)(Cc5ccn(C)n5)C4)c(F)c3)c2c1)c1c(Cl)cncc1Cl
Kd [1, 10]: 1 to 50 nM | Kd [2, 10]: 1 to 50 nM

C[C@@H](Oc1ccc2[nH]nc(-c3ccc(N4CC(N)(c5cnn(C)c5)C4)nn3)c2c1)c1c(Cl)cncc1Cl
Kd [1]: 1 to 50 nM | Kd [2]: 1 to 50 nM | IC50 [3]: 200 to 1000 nM | IC50 [4]: 0.1 to 50 nM | IC50 [5]: 50 to 200 nM | IC50 [6]: 0.1 to 50 nM

C[C@@H](Oc1ccc2[nH]nc(-c3cnc(N4CC(C)(C(=O)NCCO)C4)c(C#N)c3)c2c1)c1c(Cl)cncc1Cl
Kd [7]: 1 to 50 nM | Kd [1]: 1 to 50 nM | Kd [2]: 50 to 300 nM | Kd [8]: 1 to 50 nM | Kd [9]: 50 to 300 nM
